Molecules are shown by their SMILES.

The chains behind the UniProt entries cited, without tags or fusion partners. Where a name states a change or a piece, a line headed by the entry shows the natural chain unless it says otherwise.
UniProt Q06187: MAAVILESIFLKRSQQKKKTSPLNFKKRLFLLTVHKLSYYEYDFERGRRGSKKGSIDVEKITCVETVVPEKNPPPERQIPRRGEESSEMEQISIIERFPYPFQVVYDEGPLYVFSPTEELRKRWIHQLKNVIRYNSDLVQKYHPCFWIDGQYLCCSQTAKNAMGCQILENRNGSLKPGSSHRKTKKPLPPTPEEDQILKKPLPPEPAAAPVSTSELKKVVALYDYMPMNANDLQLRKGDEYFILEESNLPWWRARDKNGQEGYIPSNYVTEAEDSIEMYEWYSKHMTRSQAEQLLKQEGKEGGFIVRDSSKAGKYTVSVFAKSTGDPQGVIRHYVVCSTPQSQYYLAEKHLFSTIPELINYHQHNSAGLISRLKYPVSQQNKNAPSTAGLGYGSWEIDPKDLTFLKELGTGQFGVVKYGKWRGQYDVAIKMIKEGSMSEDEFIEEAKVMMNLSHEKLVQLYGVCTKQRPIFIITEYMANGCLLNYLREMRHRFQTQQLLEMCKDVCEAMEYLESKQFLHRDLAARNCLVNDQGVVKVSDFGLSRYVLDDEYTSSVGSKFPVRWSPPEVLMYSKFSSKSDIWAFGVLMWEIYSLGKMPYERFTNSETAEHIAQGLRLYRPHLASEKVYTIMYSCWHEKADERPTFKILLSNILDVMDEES

This test concerns the target Tyrosine-protein kinase BTK (Homo sapiens, UniProt Q06187). Kind of test: Inhibition of BTK (unknown origin) using peptide substrate in presence of ATP by caliper electrophoresis method.

With `CC(C)/C=C(\C#N)C(=O)N[C@H](C)Cn1nc(-c2ccc(Oc3ccccc3)cc2F)c2c(N)ncnc21`, the IC50 (in general, the concentration at which inhibition is half-maximal) amounted to 2.9 nM.

(Values after ChEMBL document CHEMBL5104103 (J Med Chem, 2022).)
